One compound from patent US20160037772A1, “INCREASING ABIOTIC STRESS TOLERANCE IN PLANTS” (priority 2014, published 2016) can be followed below.

Molecules are shown by their SMILES.

This experiment has as its system tomato plants. Nature of the experiment: Field trial in tomato plants under heat, light and water stress (sunburn, yield, soluble solids). The experiment is classed as in vivo. As to the method:
Field trials were conducted in commercial fields and orchards in Chile during the 2011-12 and 2012-13 growing seasons. The results were evaluated by measuring specific fruit parameters affected by abiotic stress including fruit diameter, fruit number, and amount of damage from heat or sunburn. The plants evaluated were apples and tomatoes. The plants in the trials received a conventional application of pesticides, under normal application conditions. The heat and light stress were considered important from the beginning of fruit development. High temperatures ranged between 30-35° C. ambient temperature measured by conventional methods in the shade from December to harvest.
The treatments included (1) no product against abiotic stress; (2) SUNCROPS (kaolin); (3) SUNCROPS PLUS (kaolin and azalaic acid); (4) ONA; (5) SUNCROPS and ONA; (6) SUNCROPS PLUS and ONA; (7) SCREEN DUO (kaolin and salicylates) and (8) ECLIPSE™. Foliage and fruit were evaluated before and after treatments at regular intervals for signs of phytotoxicity. […] Furthermore, no signs of uncontrolled disease incidence was detected.
SUNCROPS, SUNCROPS PLUS, SCREEN DUO, and ECLIPSE are commercial treatments which are used in the management of abiotic stress. Kaolins and calcium carbonates reduce stress by reflecting the ultraviolet, visible and infrared rays, reducing the impact of excessive heat and light in photosynthesis and other essential plant cellular processes. The dicarboxylic acids, such as the azalaic acid in SUNCROPS PLUS, physiologically act by interacting on lipo-oxygenation processes and production of reactive oxygen species. (Greenberg et al. “The lipid whisker model of the structure of oxidized cell membranes.” J. Biol. Chem. 283, 2385-96, 2008)
The apple trees received six applications of each formulation at the dosages indicated in the “Dosage” column of Table 1. Tomato plants received biweekly treatments from fruit formation to fruit harvest (a total of 6 applications).
The different stages of fruit development correspond to (1) cell division (2) pit hardening (stone fruits only) (3) cell expansion and (4) fruit ripening. The start of the tests was done during the cell division phase. This phase corresponds to the period with increased susceptibility to damage from high temperatures, and can be correlated with increase in fruits having reduced size and decrease in the number of fruits per plant as a consequence of the abiotic stress due to high temperatures.
Treatment with ONA alone or in combination with SUNCROPS and SUNCROPS PLUS was compared with standard treatments for managing heat, light and water stress which include SCREEN DUO, SUNCROPS, SUNCROPS PLUS and ECLIPSE (see Table 1).
In tomato plants, abiotic stress generates significant yield losses starting at temperatures of 29° C. in periods of 3-5 hours and increase as the season progresses. Furthermore, once the fruit has developed, the fruit is more susceptible to damage from heat and light, which is expressed as sunburn. The sunburn damage is very severe from the period of greatest susceptibility (once the fruit has developed) until the beginning of the color change in the fruits from yellow to green and red. […]
The yield and sunburn were evaluated as described in Table 4 below. […] The fruit were first evaluated visually: fruits with red color as adequate for industrial processing, fruits with green color as inadequate and inappropriate for industrial processing and fruits damaged by the sun as disposable. […]

For the compound `O=CCCCCCCCC(=O)O` [ONA, 9-Oxononanoic acid], the “Performance compared with commercial treatments for management of heat, light and water stress” value is reported as “outperformed other commercial treatments”. In addition, for the setting “6 applications”, the Yield total was determined as 144.6 Ton/ha. Also, the “Sunburned Fruit” value (Botalcura, Talca, Chile, biweekly treatments, 6 applications) amounted to 26.8. For the same compound, the “Yield Sunburn” value (fruits damaged by the sun, 6 applications) turned out to be 12.2 Ton/ha. The “Yield Red fruit” value (red fruit adequate for industrial processing, 6 applications) is reported as 132.4 Ton/ha.
